The values below are quoted from earlier work in patent publication US8637702B2, “Derivatives of N-hydroxybenzamide for treating HIV infections” (Italfarmaco S.p.A., priority 2009, dated 2014).

In this data set the test system is Chinese Hamster Ovary (CHO) cells. As to conditions: in vitro, Zolinza package leaflet; cited from earlier work.

As to `O=C(CCCCCCC(=O)Nc1ccccc1)NO` [SAHA], the chromosome aberrations result is reported as “causes chromosome aberrations”.
